This note sets out measurements from patent US20060079453A1, “Hla binding peptides and their uses” (priority 2002, published 2006).

Amino acid sequences for entries named in this document (tags omitted). Residues count along the entry.
UniProt P79483, 30-266: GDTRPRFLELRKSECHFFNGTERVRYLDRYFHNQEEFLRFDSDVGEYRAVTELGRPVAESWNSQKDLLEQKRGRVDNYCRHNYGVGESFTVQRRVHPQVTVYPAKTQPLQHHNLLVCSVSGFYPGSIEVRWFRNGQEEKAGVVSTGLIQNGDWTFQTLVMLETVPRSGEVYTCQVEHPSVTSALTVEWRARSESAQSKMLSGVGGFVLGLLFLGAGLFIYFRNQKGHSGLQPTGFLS
UniProt Q30154, 30-266: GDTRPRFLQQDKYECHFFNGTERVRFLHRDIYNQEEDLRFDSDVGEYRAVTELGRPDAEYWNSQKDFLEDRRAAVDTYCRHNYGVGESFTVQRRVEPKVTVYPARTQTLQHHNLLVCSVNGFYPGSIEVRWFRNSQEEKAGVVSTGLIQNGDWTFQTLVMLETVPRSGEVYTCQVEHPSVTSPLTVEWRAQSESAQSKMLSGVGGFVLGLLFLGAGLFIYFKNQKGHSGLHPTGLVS

Assay in all cases: biochemical
One assay concerns the target HLA-A*0301 (Homo sapiens, UniProt P04439). The format is binding.
Another assay has as its target HLA-A*1101 (Homo sapiens, UniProt P04439, A114D/D185E/E176A/F33Y/L180Q/S129P/T187R). The format is binding.
The next assay has as its target HLA-A*3301 (Homo sapiens, UniProt P04439, A270S/D185E/E176V/E277Q/E87N/F33T/G231S/H175R/I121M/I218V/I322F/K168Q/K210R/L300P/L318F/M331R/P217A/Q86R/Q94H/R138Q/T323A/T345S/T97I/V358M/Y195H). The format is binding.
The target of the next assay is HLA-A*6801 (Homo sapiens, UniProt P04439, A269V/D185E/E176V/E277Q/E87N/F33Y/G231S/I121M/I166T/I218V/L180W/L300P/L318F/N151K/P208A/P217A/Q86R/R169H/T345S). The format is binding.
Another assay addresses HLA-A*3101 (Homo sapiens, UniProt P04439, A270S/D185E/E176V/E277Q/F33T/G231S/G80R/H175R/I121M/I218V/I322F/K168Q/L300P/L318F/M331R/P217A/Q94H/R138Q/T323A/T345S/T97I/V358M). The format is binding.
The target of another assay is HLA-DR DRB1*0301 (DR3) (Homo sapiens, UniProt P01903+P01911, A100K/A102G/A103R/A169T/F55Y/I96L/K41T/L162R/M171V/P40S/Q125H/Q178H/Q39Y/R42S/S66N/T106N/T262R/W38E/Y61H). The format is binding.
The target of assay [1] is HLA-DQ DQA1*0501/B*0201 (DQ2) (Homo sapiens, UniProt P01909+P01920, A45G/A70V/D89A/E106A/E77G/E98D/H199R/L107V/N214S/P84L/P87L/T103K/T109R/T172A/T60S/V78E/V99I/Y58L/Y62S/Y69I/Y79F).
The target in assay [2] is HLA-DQ DQA1*0301/B*0302 (DQ8) (Homo sapiens, UniProt P01909+P01920, A209T/A45G/C70Q/D89A/DUP78-78/E183D/E77G/F237L/G63E/H199R/I129T/K197E/L178F/L74F/L98V/Q57E/Q76R/S185I/S97I/T217I/T49S/V73L/Y58L).
In another assay the target is HLA-DR DRB1*0802 (DR8) (Homo sapiens, UniProt P01903+P01911, A100R/A103L/A169T/F76Y/H45Y/I96F/K41T/L162R/M171V/P40S/Q125H/Q178H/Q39Y/Q99D/R218S/R42G/S66Y/V115G/W38E). The format is binding.
For the next assay, the target named is HLA-DR DRB1*0901 (DR9) (Homo sapiens, UniProt P01903+P01911, A100R/A103E/D57H/D86V/F55Y/F60I/F76Y/I96F/K127E/L162R/M171V/P40D/Q125H/Q99R/R33Q/R42F/S133A/S66N/T210M/V115G/W38K/Y107V/Y59G/Y89S). The format is binding. The settings on record: DRB1 *0901.
Another assay deals with HLA-DR DRB3*0101 (DR52) (Homo sapiens, UniProt P01903+P79483). Format: binding.
The next assay deals with HLA-DR DRB1*1101 (DR11) (Homo sapiens, UniProt P01903+P01911, A100R/A169T/A87E/I96F/K41T/L162R/M171V/P40S/Q125H/Q178H/Q39Y/Q99D/R42S/S66Y/T262R/V115G/W38E). The format is binding. The settings on record: DRB1 *1101.
The next assay addresses HLA-DR DRB5*0101 (DR51) (Homo sapiens, UniProt P01903+Q30154). Format: binding. The settings on record: DRB5 *0101.

Like-named read-outs stand apart in the source and are kept apart here. Some results are limits rather than exact numbers.

For `C[C@H](N)C(=O)N[C@@H](C)C(=O)N[C@@H](Cc1ccc(O)cc1)C(=O)N[C@@H](C)C(=O)N[C@@H](C)C(=O)N[C@@H](CCC(N)=O)C(=O)NCC(=O)N[C@@H](Cc1ccc(O)cc1)C(=O)N[C@@H](CCCCN)C(=O)O`, the concentration for half-maximal inhibition (IC50) on HLA-A*0301 turned out to be 18 nM; on HLA-A*1101 it was 18 nM; against HLA-A*3301 it was 14100 nM; against HLA-A*6801, 34 nM.
Take `CC(C)C[C@H](NC(=O)[C@H](CC(=O)O)NC(=O)[C@H](C)NC(=O)[C@H](Cc1ccccc1)NC(=O)[C@H](C)N)C(=O)N[C@H](C(=O)N[C@H](C(=O)N[C@H](C(=O)N[C@@H](Cc1ccc(O)cc1)C(=O)N[C@@H](CCCCN)C(=O)O)C(C)C)C(C)C)[C@@H](C)O`: on HLA-A*3301, half-maximal inhibition (IC50) required 13600 nM.
Consider `CC[C@H](C)[C@H](NC(=O)[C@H](CS)NC(=O)[C@H](CCCNC(=N)N)NC(=O)[C@@H](NC(=O)[C@H](CC(C)C)NC(=O)[C@H](CC(C)C)NC(=O)[C@@H](N)CC(=O)O)[C@@H](C)CC)C(=O)N[C@@H](CC(N)=O)C(=O)N[C@@H](CS)C(=O)N[C@@H](CCC(N)=O)C(=O)N[C@@H](CCCCN)C(=O)O`, for which the IC50 on HLA-A*0301 is 2920 nM; against HLA-A*1101 it was 935 nM; on HLA-A*3101 it was 4880 nM; on HLA-A*3301 it was 29 nM.
Molecule `CC[C@H](C)[C@H](NC(=O)[C@@H](NC(=O)[C@H](CC(C)C)NC(=O)[C@H](CC(=O)O)NC(=O)[C@@H](NC(=O)[C@@H](N)Cc1ccccc1)C(C)C)[C@@H](C)O)C(=O)N[C@H](C(=O)N[C@@H](Cc1ccc(O)cc1)C(=O)N[C@@H](CCCNC(=N)N)C(=O)O)C(C)C` came in with an IC50 against HLA-A*6801 of 138 nM.
The molecule `CC[C@H](C)[C@H](NC(=O)[C@H](C)NC(=O)CNC(=O)[C@@H](N)Cc1c[nH]cn1)C(=O)N[C@H](C(=O)N[C@@H](CO)C(=O)N[C@@H](CO)C(=O)N[C@@H](CC(N)=O)C(=O)N[C@H](C(=O)N[C@@H](CCCCN)C(=O)O)[C@@H](C)O)[C@@H](C)O` registered an IC50 on HLA-A*6801 of 1240 nM.
With `CC[C@H](C)[C@H](NC(=O)[C@H](C)NC(=O)[C@H](CCC(=O)O)NC(=O)[C@@H](N)CCCCN)C(=O)N[C@@H](CO)C(=O)N1CCC[C@H]1C(=O)N1CCC[C@H]1C(=O)N[C@@H](CC(=O)O)C(=O)N[C@@H](C)C(=O)N[C@@H](C)C(=O)N[C@@H](CO)C(=O)N[C@@H](C)C(=O)N[C@@H](C)C(=O)N1CCC[C@H]1C(=O)N[C@@H](CC(C)C)C(=O)O`, the IC50 was 48600 nM on HLA-DR DRB1*0301 (DR3), 7290 nM in [1] and 960 nM in assay [2].
Regarding `CC[C@H](C)[C@H](NC(=O)[C@H](Cc1ccc(O)cc1)NC(=O)[C@H](CC(C)C)NC(=O)[C@@H](N)CC(C)C)C(=O)N[C@@H](CC(C)C)C(=O)N[C@@H](Cc1ccccc1)C(=O)N[C@@H](CC(C)C)C(=O)N[C@H](C(=O)N[C@@H](CCCCN)C(=O)O)C(C)C`, the IC50 on HLA-A*0301 was 13 nM; on HLA-A*3101 it was 90700 nM; on HLA-A*6801, 5550 nM.
`CC(C)C[C@H](NC(=O)[C@@H]1CCCN1C(=O)[C@H](CC(C)C)NC(=O)[C@@H](N)CCCNC(=N)N)C(=O)N[C@@H](CC(C)C)C(=O)N1CCC[C@H]1C(=O)N[C@@H](CCCCN)C(=O)N[C@H](C(=O)N[C@@H](Cc1c[nH]c2ccccc12)C(=O)N[C@@H](CCCCN)C(=O)O)[C@@H](C)O` registered an IC50 at HLA-A*3301 of 11400 nM.
Consider `CC(C)C[C@H](NC(=O)[C@H](C)NC(=O)[C@H](CCC(N)=O)NC(=O)CNC(=O)[C@H](CCCNC(=N)N)NC(=O)[C@H](CC(C)C)NC(=O)[C@@H](NC(=O)[C@H](C)NC(=O)[C@H](CCC(=O)O)NC(=O)[C@@H](N)CO)C(C)C)C(=O)N[C@@H](CC(C)C)C(=O)N[C@H](C(=O)N[C@@H](CC(N)=O)C(=O)N[C@@H](CO)C(=O)N[C@@H](CO)C(=O)O)C(C)C`, for which the IC50 against HLA-DR DRB1*0301 (DR3) is 70900 nM; on HLA-DR DRB1*0802 (DR8), > 63600 nM; against HLA-DR DRB1*0901 (DR9), > 78900 nM; in assay [1], 9760 nM; in assay [2], 36400 nM.
For the molecule `CC(C)C[C@H](NC(=O)[C@H](CO)NC(=O)[C@@H]1CCCN1C(=O)[C@H](C)NC(=O)[C@H](CO)NC(=O)[C@H](CC(C)C)NC(=O)[C@H](CCC(N)=O)NC(=O)[C@@H](N)CO)C(=O)N[C@@H](CCCCN)C(=O)O`, the IC50 was 25 nM at HLA-A*1101, 1280 nM against HLA-A*3101, > 123000 nM at HLA-A*3301 and 3840 nM against HLA-A*6801.
As for `C[C@@H](O)[C@H](NC(=O)[C@H](CCCNC(=N)N)NC(=O)[C@H](CO)NC(=O)[C@H](CO)NC(=O)[C@H](CCCNC(=N)N)NC(=O)[C@H](CS)NC(=O)[C@@H](NC(=O)[C@@H](N)CO)[C@@H](C)O)C(=O)N[C@@H](CCCNC(=N)N)C(=O)N[C@@H](CCCNC(=N)N)C(=O)O`, it took 1020 nM to reach half-maximal inhibition against HLA-A*3301 (IC50).
The molecule `CC(C)[C@H](NC(=O)[C@@H](N)[C@@H](C)O)C(=O)N[C@@H](CCC(N)=O)C(=O)NCC(=O)N1CCC[C@H]1C(=O)NCC(=O)N1CCC[C@H]1C(=O)NCC(=O)N[C@@H](CCC(=O)O)C(=O)N[C@@H](CCCCN)C(=O)O` yielded an IC50 at HLA-A*6801 of 195 nM.
Take `CC(C)C[C@H](NC(=O)[C@@H](NC(=O)[C@H](C)NC(=O)[C@H](CCC(=O)O)NC(=O)[C@H](CO)NC(=O)[C@H](CC(C)C)NC(=O)[C@H](CC(C)C)NC(=O)[C@H](C)NC(=O)[C@H](CC(C)C)NC(=O)CNC(=O)[C@H](CCC(N)=O)NC(=O)[C@H](Cc1c[nH]c2ccccc12)NC(=O)[C@@H](NC(=O)[C@H](CCC(=O)O)NC(=O)[C@@H](N)C(C)C)C(C)C)C(C)C)C(=O)O`: the IC50 was > 38200 nM on HLA-DR DRB3*0101 (DR52), 98 nM in assay [1] and 14 nM in assay [2].
As for `CC(C)C[C@H](NC(=O)[C@H](CC(C)C)NC(=O)[C@H](C)NC(=O)[C@H](CC(C)C)NC(=O)CNC(=O)[C@H](CCC(N)=O)NC(=O)[C@H](Cc1c[nH]c2ccccc12)NC(=O)[C@@H](NC(=O)[C@H](CCC(=O)O)NC(=O)[C@@H](NC(=O)[C@H](C)NC(=O)[C@H](CCC(N)=O)NC(=O)[C@H](CCC(N)=O)NC(=O)CNC(=O)[C@@H](N)C(C)C)C(C)C)C(C)C)C(=O)O`, the IC50 against HLA-DR DRB1*0301 (DR3) is > 174000 nM; against HLA-DR DRB1*0802 (DR8), > 40500 nM; against HLA-DR DRB1*0901 (DR9), > 78900 nM; at HLA-DR DRB1*1101 (DR11) it was > 17200 nM; on HLA-DR DRB3*0101 (DR52), > 38200 nM; against HLA-DR DRB5*0101 (DR51), > 7790 nM. Moreover, the figures for the IC50 in assay [1] and in assay [2] were 838 nM and 4410 nM, respectively.
With `CC[C@H](C)[C@H](NC(=O)[C@H](CCCNC(=N)N)NC(=O)[C@@H](NC(=O)[C@@H](NC(=O)[C@@H](N)C(C)C)[C@@H](C)O)C(C)C)C(=O)NCC(=O)NCC(=O)N[C@@H](CCC(N)=O)C(=O)N[C@@H](CC(C)C)C(=O)N[C@@H](CCCCN)C(=O)O`, the IC50 against HLA-A*3301 amounted to 40300 nM.
Turning to HLNIPIGFK, the IC50 at HLA-A*0301 (read-out: A*0301 binding affinity (IC50)) stood at 2.3 nM; on HLA-A*1101 (read-out: A*1101 binding affinity (IC50)), 1.3 nM; at HLA-A*3101 (read-out: A*3101 binding affinity (IC50)), 183 nM; at HLA-A*6801 (read-out: A*6801 binding affinity (IC50)), 2.8 nM.
